The source of these data is US20070014736A1, “Methods of delivering corticotroph-derived glycoprotein hormone” (priority 2005, published 2007).

The test system of test [1] is TSHR. Nature of the test: Binding of 125I-CGH and 125I-TSH to BHK cells expressing the TSHR. On the set-up: species or system murine or human. Here is the method: (§1) Radiolabeled rhCGH and human pituitary-derived TSH (BiosPacific, Emeryville, Calif.) were prepared with ^125I-Bolton Hunter Reagent (Amersham Pharmacia Biotech, Buckinghamshire, UK) according to the manufacturer's instructions. Fifty μg of protein was radiolabeled to specific activities of 9000-14,000 cpm/ng with 89-97% of the radioactivity precipitating with 10% TCA. Bioactivity of each preparation of ^125I-CGH and ^125I-TSH was measured using BHK cells transfected with a CRE-luciferase reporter construct and the human TSHR. […] BHK cells expressing murine or human TSHRs were cultured in Dulbecco's Modified Eagle's Medium [DMEM (high glucose)] containing 5% fetal bovine serum, 1% Glutamax, 1% sodium pyruvate, 250 nM methotrexate, and Geneticin ( 1/100). Cells were seeded on day 0 at a density of 4,000 cells/cm^2 and were used on days 4-5 by which time the cell number had increased to about 1×10^5 cells/cm^2. Plates of cells were placed on ice and washed twice with 1.0-2.0 ml of ice-cold PBS. The washes were discarded and each well was incubated with the indicated concentration of ^125I-CGH or ^125I-TSH in 0.1 mL/cm^2 of Medium B [DMEM (no bicarbonate), 0.02M Hepes, pH 7.4, 1.0 mg BSA/ml]. Specific binding was determined in the presence (nonspecific binding) and absence (total binding) of unlabeled rhCGH (25.0 μg/ml) or TSH (10 μg/ml). Binding reactions were terminated by removing the binding medium and the cell monolayers were washed three times with 1.0-2.0 ml of ice-cold PBS containing 1.0 mg/ml BSA and twice with 1.0-2.0 ml of ice cold albumin-free PBS. Cells were solubilized in 1.0 ml of 1.0N NaOH for 10 min at room temperature and cell-associated radioactivity was determined in a gamma counter. The measured radioactivity was normalized to cell number that was determined on plates of cells cultured in parallel. Binding data were analyzed by non-linear regression using Prizm 3.0 (GraphPad Software, San Diego, Calif.).

For test [2], the system named is parental BHK cells lacking the TSHR. The test is described as follows: Binding of radioligands to parental BHK cells. Particulars: data not shown. Here is the method: as §1, with “Cells were seeded on day 0 at a density of 4,000 cells/cm^2 and were used on days 4-5 by which time the cell number had increased to about 1×10^5 cells/cm^2. Plates of cells were placed on ice and washed twice with 1.0-2.0 ml of ice-cold PBS. The washes were discarded and each well was incubated with the indicated concentration of ^125I-CGH or ^125I-TSH in 0.1 mL/cm^2 of Medium B [DMEM (no bicarbonate), 0.02M Hepes, pH 7.4, 1.0 mg BSA/ml].” left out, “Binding reactions were terminated by removing the binding medium and the cell monolayers were washed three times with 1.0-2.0 ml of ice-cold PBS containing 1.0 mg/ml BSA and twice with 1.0-2.0 ml of ice cold albumin-free PBS.” left out, “Calif.). […]” for “Calif.).”

Test [3] deals with T1, human TSHR (Homo sapiens, UniProt P16473).
T1 construct: expressed in transfected cells; host or cells: BHK cells
The test is described as follows: Bioactivity in BHK cells with CRE-luciferase reporter and human TSHR. Format: cell-based. To be noted: CRE-luciferase reporter.

For “^125I-TSH: human pituitary-derived TSH radiolabeled with 125I-Bolton Hunter Reagent [reference compound]”, in test [1] (single site model), the Bmax is given as 178 fmol/10^6 cells and the sites per cell entry is reported as “about 107,000 sites per cell”. For the same substance, the “binding to parental BHK cells lacking the TSHR” value in test [2] is “Little or no binding”. Moreover, the “bioactivity compared to unlabeled counterpart” value in test [3] is given as “no significant differences”.
For “rhTSH: unlabeled recombinant human thyroid-stimulating hormone used as competitor [reference compound]”, the “reduction of the amount of 125I-CGH bound by unlabeled competitor” value in test [1] (increasing amounts of unlabeled protein) is “neither unlabeled rhTSH (FIG. 1C) nor unlabeled rhGPHA2 nor rhGPHB5 (data not shown) reduced the amount of ^125I-CGH bound”.
